Compound activity from PubChem.
An excerpt weighted towards active compounds, which were near 16% of everything screened.
miR-21 reporter: miR-21 reporter, rising signal. HeLa miR-21 FLuc reporter, luciferase, 48 h. Potency, µM (titrated, usually from 38.3 µM), without a hit: at the top dose reporter change, positive = more light. 340,000 tested, under 10 active. AID 2288; active = well fitted rising curve with a large enough effect; inconclusive = small, poorly fitted or top-dose-only effect; inactive = no such curve, though single readings can be large or run the other way;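 also: % of control where 0% means no effect; miR-21 action dims this reporter so a rising signal means less miR-21 action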
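HeLa cells endogenously expressing miR-21, stably carrying CMV-driven firefly luciferase with a downstream miR-21 binding site, 2000 cells/well. Titrations up to approximately 40 uM, 48 hours; luciferase luminescence read.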
TDP1 block: TDP1 (human) enzyme inhibition; AID 485290; 350,000 tested, 0.28% active; Potency, µM (titrated, usually from 130 µM), without a hit: at the highest dose activity change, negative = inhibition, actives largely listed as inhibitors; Q9NUW8; recombinant TDP1, AlphaScreen DNA substrate cleavage; further: potency means the concentration at half of the fitted maximal effect; on the % scale 0 is the no-effect control and ±100 the full control effect; nearly all actives have a fitted effect of over 40% in size
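Tdp1 1 nM final; 15 min RT w/ cpd; substrate 15 nM, 5 min; beads 10 ug/ml, 10 min; AlphaScreen read. Neg ctrl: no enzyme.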
TDP1 cell noCPT: qHTS for Inhibitors of human tyrosyl-DNA phosphodiesterase 1 (TDP1): qHTS in cells in absence of CPT; DT40 Tdp1-/- hTDP1 cells, no CPT, ATP luminescence, 48 h; 420,000 tested, 15% active; Potency, µM (highest dose often 46.2 µM), inactives show at the top dose activity change, negative = growth inhibition, most hits filed as inhibitors; further: potency means the concentration at half of the fitted maximal effect; on the % scale 0 is the no-effect control and ±100 the full control effect; nearly all actives have a fitted effect of over 55% in size
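No-CPT arm: Tdp1-/-;hTDP1 DT40 cells (400/well) plus compounds, incubated ≥48 hr at 37 °C. Readout CellTiter-Glo luminescence.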
TDP1 cell CPT: growth inhibition of DT40 Tdp1-/-;hTDP1 cells with camptothecin (screen for TDP1 inhibitors). chicken DT40 Tdp1-/-;hTDP1 cells + 20 nM CPT, ATP luminescence, 48 h. Potency, µM (highest dose often 46.2 µM), for the others: at the highest dose activity change, negative = growth inhibition, usual class: inhibitors. 420,000 tested, 12% active. AID 686979; further: potency means the concentration at half of the fitted maximal effect; on the % scale 0 is the no-effect control and ±100 the full control effect; nearly all actives have a fitted effect of over 55% in size
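Cell growth measured by CellTiter-Glo luminescence after a minimum 48 h, 37 C compound exposure with 20 nM CPT in Tdp1-knockout DT40 cells stably expressing hTDP1, seeded 400/well; qHTS titration format.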
uPA generation: inhibitors of cell surface uPA generation. cell surface uPA generation assay, qHTS. Potency, µM (titrated, usually from 38.3 µM), for the others: at the top dose activity change, negative = inhibition, hits mostly inhibitors. 330,000 tested, 0.31% active. AID 540303; active means well fitted inhibition curve with a large enough effect; inconclusive means small, poorly fitted or top-dose-only effect; inactive means no such curve, though single readings can be large or run the other way; tested in mouse RAW 264.7 cells; further: potency means the concentration at half of the fitted maximal effect; on the % scale 0 is the no-effect control and ±100 the full control effect; nearly all actives have a fitted effect of over 55% in size
Starred values were filed as active, the others as inactive; ? = inconclusive; . = no result; [ ] = remark or other dose. Unless noted, the call rests on the fitted dose curve; in most records, active means well fitted curve in the direction sought with a large enough effect; inconclusive means small, poorly fitted or top-dose-only effect, or another doubt; inactive means no such curve, though single readings can be large; an effect the other way counts as inactive or inconclusive.

1: COc1ccc(-c2onc(C)c2C)cc1S(=O)(=O)NCC(C)c1ccccc1 (configuration not stated)
2: C/C(=C\c1ccco1)CN1CCOc2ccc(C(C)(O)COc3ccccc3)cc2C1 (configuration not stated)
3: CC1CCN(C(=O)COC(=O)CNC(=O)c2ccccc2F)CC1
4: CCOC(=O)c1c(C)[nH]c(C)c1S(=O)(=O)N(C)CC(=O)N1CCN(c2ccc(Cl)cc2)CC1
5: CCOC(=O)c1[nH]c(C)c(C(=O)N2CCN(c3ccccc3)CC2)c1C
6: CCOC(=O)c1[nH]c(C)c(CCC(=O)N2CCN(c3cccc(C)c3C)CC2)c1C
7: CCOC(=O)c1[nH]c(C)c(CCC(=O)N2CCN(c3ccc(Cl)cc3)CC2)c1C
8: Cc1[nH]oc(=O)c1N=Nc1c(Cl)cccc1Cl

| Compound | 1 | 2 | 3 | 4 | 5 | 6 | 7 | 8 |
| --- | --- | --- | --- | --- | --- | --- | --- | --- |
| miR-21 reporter | 12% | . | . | 1% | -11% | 25% | 11% | 0% |
| TDP1 block | -5% | . | 4% | 11% | 8% | 14% | 8% | 0% |
| TDP1 cell noCPT | ? | ? | 0% | ? | ? | 18µM* | 23µM* | ? |
| TDP1 cell CPT | ? | 19%[9.04 µM] | -1% | 15µM* | -19% | 15µM* | ? | -15% |
| uPA generation | . | . | 2% | . | . | . | . | 5% |

9: CCOC(=O)C1CCCN(C(=O)c2cc3nc(-c4cccc(OC)c4)cc(C(F)(F)F)n3n2)C1 (configuration not stated)
10: Cc1cc(-c2ccc(C)c(S(=O)(=O)Nc3ccccc3C(F)(F)F)c2)on1
11: O=C1S/C(=C\C=C\c2ccco2)C(=O)N1c1ccccc1
12: O=C(O)CC(C(=O)O)N1C(=O)/C(=C/C=C/c2ccco2)SC1=S (configuration not stated)
13: O=C(O)CCCN1C(=O)/C(=C/C=C/c2ccco2)SC1=S
14: O=C1S/C(=C\C=C\c2ccco2)C(=O)N1c1ccc(O)cc1
15: CCOc1ccc(CC(=O)N/N=C(\C)c2cccnc2)cc1
16: CC1=CC(C)(C)NC(=S)N1c1cc(C)cc(C)c1

| Compound | 9 | 10 | 11 | 12 | 13 | 14 | 15 | 16 |
| --- | --- | --- | --- | --- | --- | --- | --- | --- |
| miR-21 reporter | 1% | 26% | -56% | 0% | 13% | -36% | -1% | 13% |
| TDP1 block | -2% | 3% | 3% | . | 4% | 0% | 5%[56.1 µM] | 3% |
| TDP1 cell noCPT | ? | ? | 23µM* | -3% | ? | ? | -18% | ? |
| TDP1 cell CPT | ? | ? | ? | -30% | -22% | 18µM* | ? | ? |
| uPA generation | -19% | . | -4% | 0% | -2% | 1% | 4% | 0% |

17: [O-]/[N+](=C\C=C\c1ccccc1)c1ccccc1
18: [O-]/[N+](=C\c1ccncc1)c1ccccc1
19: OC(CN(Cc1ccccc1)Cc1ccccc1)c1ccccc1 (configuration not stated)
20: CC(C)OCCCN(CC(O)c1ccccc1)CC(O)c1ccccc1 (configuration not stated)
21: CC(=O)Nc1cc(C(=O)NCc2ccc(C)cc2)ccc1Sc1ccc(C)cc1
22: CC(=O)Nc1cc(C(=O)NCc2ccco2)ccc1Sc1ccc(C)cc1
23: CCOc1ccc(CNC(=O)c2ccc(Sc3ccc(Cl)cc3)c(NC(C)=O)c2)cc1OC
24: CCOc1ccc(CNC(=O)c2ccc(Sc3ccc(C)cc3)c(NC(C)=O)c2)cc1OC

| Compound | 17 | 18 | 19 | 20 | 21 | 22 | 23 | 24 |
| --- | --- | --- | --- | --- | --- | --- | --- | --- |
| miR-21 reporter | -88% | -5% | . | -1% | 4% | -5% | 12% | 17% |
| TDP1 block | -4% | 0% | . | 0% | 5% | 3% | 5% | 0% |
| TDP1 cell noCPT | ? | ? | 18µM* | ? | 23µM* | -29% | 21µM* | ? |
| TDP1 cell CPT | -15% | 21µM* | 16µM* | ? | 16µM* | -7% | ? | -23% |
| uPA generation | -5% | 2% | 2% | 5% | . | 1% | -3% | -2% |

4 compounds from above, reduced to uPA generation, TDP1 cell noCPT and miR-21 reporter:
item	SMILES	uPA generation	TDP1 cell noCPT	miR-21 reporter
24	CCOc1ccc(CNC(=O)c2ccc(Sc3ccc(C)cc3)c(NC(C)=O)c2)cc1OC	-2%	?	17%
23	CCOc1ccc(CNC(=O)c2ccc(Sc3ccc(Cl)cc3)c(NC(C)=O)c2)cc1OC	-3%	21µM*	12%
21	CC(=O)Nc1cc(C(=O)NCc2ccc(C)cc2)ccc1Sc1ccc(C)cc1	.	23µM*	4%
18	[O-]/[N+](=C\c1ccncc1)c1ccccc1	2%	?	-5%

Later entries.
25: CCOc1cccc(C(=O)Nc2cc(-c3ccc(C)cc3)no2)c1
26: CCN1CCN(c2nc3ccccc3nc2NS(=O)(=O)c2ccc(NC(C)=O)cc2)CC1
27: O=C1C(NS(=O)(=O)c2ccccc2)=C(N2CCN(c3ccc(F)cc3)CC2)C(=O)c2ccccc21
28: CC(=O)Nc1ccc(S(=O)(=O)NC2=C(N3CCN(Cc4ccccc4)CC3)C(=O)c3ccccc3C2=O)cc1
29: CCN1CCN(C2=C(NS(=O)(=O)c3ccc(C)cc3)C(=O)c3ccccc3C2=O)CC1
30: O=C(CCS(=O)(=O)c1ccccc1)Nc1ccc(N2CCN(Cc3ccccc3)CC2)cc1
31: CCN1CCN(C2=C(NS(=O)(=O)c3ccc(NC(C)=O)cc3)C(=O)c3ccccc3C2=O)CC1
32: CC(=O)Nc1ccc(S(=O)(=O)Nc2cc(C)cn(Cc3ccccc3)c2=O)cc1

| Compound | 25 | 26 | 27 | 28 | 29 | 30 | 31 | 32 |
| --- | --- | --- | --- | --- | --- | --- | --- | --- |
| miR-21 reporter | 0% | -3% | 1% | 6% | 12% | . | 15% | -1% |
| TDP1 block | 2% | 1% | . | 10% | 6% | 1% | 7% | 14% |
| TDP1 cell noCPT | -19% | -2% | ? | ? | 21µM* | ? | 21µM* | 7.3µM* |
| TDP1 cell CPT | -23% | 1% | ? | 10µM* | 12µM* | ? | 16µM* | ? |
| uPA generation | . | 8% | 5% | -2% | ? | -9% | -10% | -8% |

33: CCN(c1ccccc1)S(=O)(=O)c1ccc(C(=O)Nc2ncccc2O)cc1
34: COCCNC(=O)C1CCC(CNS(=O)(=O)c2c(C)cc(C)cc2C)CC1 (configuration not stated)
35: O=S(=O)(NCC(c1ccccc1)N1CCc2ccccc21)c1ccc(Cl)cc1 (configuration not stated)
36: CCOc1ccc(NC(=O)CSc2nc(-c3ccc(F)cc3)cc(C(F)(F)F)c2C#N)cc1
37: Clc1cccc(OCCn2cncn2)c1Cl
38: Clc1cccc(Oc2cnns2)c1Cl
39: CN(CC(=O)Nc1ccc(Cl)c(C(F)(F)F)c1)C(=O)CCN1C(=O)C2CC=CCC2C1=O (configuration not stated)
40: CN(CC(=O)Nc1ccc(Cl)c(C(F)(F)F)c1)C(=O)Cc1ccsc1

| Compound | 33 | 34 | 35 | 36 | 37 | 38 | 39 | 40 |
| --- | --- | --- | --- | --- | --- | --- | --- | --- |
| miR-21 reporter | -6% | 0% | ? | 6% | -13% | -4% | . | . |
| TDP1 block | 2% | . | 5% | 0% | -7% | -3% | . | . |
| TDP1 cell noCPT | ? | -25% | ? | -25% | -21% | 26µM* | ? | 16µM* |
| TDP1 cell CPT | ? | -13% | ? | 4% | -18% | ? | 9.2µM* | 16µM* |
| uPA generation | 2% | 8% | . | . | -4% | 2% | ? | -1% |

41: Cc1cc(C)n(CC(O)COc2ccc(C(C)C)c(C)c2)n1 (configuration not stated)
42: O=C(CNC(=O)c1ccc(Cl)cc1Cl)OCc1cn2cc(Br)ccc2n1
43: CC[C@@]12C(=O)N(c3cccc(Br)c3)C(=O)N1[C@H](c1ccc(Br)cc1)[C@@H]1C(=O)N(C(C)(C)C)C(=O)[C@@H]12
44: Cc1cc(OCC(=O)Nc2ccc(S(=O)(=O)N3CCN(C)CC3)cc2)cc(C)c1Cl
45: CCOC(=O)c1sc2nc(CC(=O)OC)nc(NCc3ccc(Cl)cc3)c2c1C

| Compound | 41 | 42 | 43 | 44 | 45 |
| --- | --- | --- | --- | --- | --- |
| miR-21 reporter | -11% | . | . | -4% | 1% |
| TDP1 block | . | 1% | -2% | 2% | -5% |
| TDP1 cell noCPT | ? | -4% | ? | ? | 5.8µM* |
| TDP1 cell CPT | ? | 1% | ? | ? | 4.1µM* |
| uPA generation | 0% | -3% | -9% | -10% | . |

Two entries drawn at random from the list so far, as already listed:
42: O=C(CNC(=O)c1ccc(Cl)cc1Cl)OCc1cn2cc(Br)ccc2n1
44: Cc1cc(OCC(=O)Nc2ccc(S(=O)(=O)N3CCN(C)CC3)cc2)cc(C)c1Cl

| Compound | 42 | 44 |
| --- | --- | --- |
| miR-21 reporter | . | -4% |
| TDP1 block | 1% | 2% |
| TDP1 cell noCPT | -4% | ? |
| TDP1 cell CPT | 1% | ? |
| uPA generation | -3% | -10% |
